Conditions: water

tertiobutylamino-3 (isopropyl-2 méthyl-5 cyclohexyloxy)-1 propanol-2, maléate [Exemple 2]
Solubilités : soluble dans l'eau: 1%

Reference: patent EP0037777A1, “Process for preparation of cycloalcoyl propanol amines useful as medicine” (PIERRE FABRE S.A., priority 1980, dated 1981)
